# Water solubility values, as collected for the OPERA models

From the experimental data distributed with OPERA 2.9.

Water solubility is log10 of mol/L, nominally at 25 °C; higher is more soluble.

compound	water solubility (log10 mol/L)
CCCCCOC(=O)c1ccc(N)cc1	-3.305
CCC(Oc1ccc(F)c(C(F)(F)F)c1)C(O)=NCc1ccccc1 (configuration not stated)	-5.03
C[C@H](NC(=N)N)C(=O)O	-0.199
O=C(O)/C=C/c1c[nH]cn1	-1.96
Nc1cc(Cl)c(Cl)c(Cl)c1Cl	-4.53
O=C(NC(=O)c1ccccc1)c1ccccc1	-2.27
CC(=O)c1ccc(O[C@@H]2O[C@H](CO)[C@@H](O)[C@H](O)[C@H]2O)cc1	-1.174
CC1=C(C(=O)O)CCCC1	-2.283
CC(=O)OCOC(=O)c1ccccc1OC(C)=O	-2.016
Cc1ccc(N2C(=O)c3cccc4c(N)ccc(c34)C2=O)c(C)c1	-4.892
CCCNc1c([N+](=O)[O-])cc(C(F)(F)F)cc1[N+](=O)[O-]	-4.46
Nc1ncnc2c1ncn2[C@@H]1O[C@H](COP(=O)(O)O)[C@@H](OP(=O)(O)O)[C@H]1O	0.158
NC(N)=Nc1nc(CSCCC(N)=NS(N)(=O)=O)cs1	-2.57
Nc1c(Cl)c(Cl)cc(Cl)c1Cl	-4.38
CCC(CC)(C(=O)NC)C(=O)NC	0.031
CC1CCC(C)(C(=O)O)C1(C)C (configuration not stated)	-3.027
CC(C)CCCCCCCCCCCCCCC(=O)OCC(C)O (configuration not stated)	-7.234
CC(C)(C)C(=O)OCOC(=O)[C@@H]1N2C(=O)[C@@H](N=CN3CCCCCC3)[C@H]2SC1(C)C	-3.922
O=CC(N=C(O)OCc1ccccc1)C(O)C(O)C(O)CO (configuration not stated)	-1.74
O=c1c(Br)cccc(Br)c1O	-3.503
Cn1c(=O)[nH]c(=O)c2[nH]c(=O)n(C)c21	-2.568
Cc1c(NC(N)=O)c(=O)n(-c2ccccc2)n1C	-1.522
Nc1ccc2cc(S(=O)(=O)O)cc(S(=O)(=O)O)c2c1	-0.518
NS(=O)(=O)c1ccc(=O)[nH]c1	-1.843
NC1NC(=O)NCC1CC(=O)O (configuration not stated)	-1.711
O=C(N/N=C/C=C/c1ccc([N+](=O)[O-])o1)Nc1ccccc1	-4.088
CCCCc1nc(CCCC)n(Cc2ccc(-c3ccccc3-c3nn[nH]n3)nc2)n1	-4.796
CCCCCCCCCNC(=O)C(O)C(O)C(O)C(O)CO (configuration not stated)	-3.507
NC(=O)Nc1ccccc1F	-1.08
CCCC1OCC(C)([N+](=O)[O-])CO1 (configuration not stated)	-1.8
CC(C)(C)c1nnc(NS(=O)(=O)c2ccc(N)cc2)s1	-3.74
CC(C)CC(=O)C(=O)O	-0.609
COc1cc(NC(=O)c2cc3ccccc3c(N=Nc3cc(C(=O)Nc4ccccc4)ccc3OC)c2O)c(OC)cc1Cl	-7.847
Cc1c(NC(=O)Nc2ccccc2)c(=O)n(-c2ccccc2)n1C	-2.304
COc1ccc(C2C(=O)c3ccccc3C2=O)cc1	-4.295
CC1(C)Cc2cccc(O)c2O1	-2.18
CCCN(CCC)C(=O)CCC(=O)OCC	-1.096
C[C@]12C=CC(=O)N[C@@H]1CC[C@@H]1[C@@H]2CC[C@]2(C)[C@@H](C(=O)Nc3cc(C(F)(F)F)ccc3C(F)(F)F)CC[C@@H]12	-5.765
CN(C)c1ccc(N=Nc2ccc([N+](=O)[O-])cc2)cc1	-8.699
O=C(O)CSC1CCCCC1	-1.338
Nc1ccc2cc(S(=O)(=O)[O-])cc(O)c2c1/N=N/c1ccccc1S(=O)(=O)c1ccccc1.[Na+]	-2.089
CC(=O)OCCOc1ccccc1	-1.977
OCCOc1ccc(OCCO)cc1	-1.229
CCC(=O)OCCCCCOC(=O)CC	-2.231
O=c1c2ccc3c4c(ccc(c24)c2nc4ccccc4n12)c(=O)n1c2ccccc2nc31	-7.758
CCCCCC(C)C	-4.48
CCCC(c1cc(C(C)(C)C)c(O)cc1C)c1cc(C(C)(C)C)c(O)cc1C	-7.981
CCOC(=O)[C@@H](N)Cc1cc(I)c(Oc2cc(I)c(O)c(I)c2)c(I)c1	-4.6
C[C@@H]1OC(O)[C@@H](O)[C@H](O)[C@@H]1O (stereo partly drawn)	0.778
CCNC(=O)Nc1c(C)n(C)n(-c2ccccc2)c1=O	-1.825
Clc1ccc(-c2ccc(-c3cc(Cl)ccc3Cl)cc2)cc1	-8.91
O=C(Nc1ccc(NC(=O)c2cc3ccccc3c(N=Nc3ccc(Cl)cc3[N+](=O)[O-])c2O)c(Cl)c1)c1cc2ccccc2c(N=Nc2ccc(Cl)cc2[N+](=O)[O-])c1O	-7.628
Cc1cc(N(CCO)CCO)ccc1N=Nc1c(Cl)cc([N+](=O)[O-])cc1[N+](=O)[O-]	-6.301

A selection of 7 entries from above:

{"smiles": "CC1(C)Cc2cccc(O)c2O1", "water solubility (log10 mol/L)": "-2.18"}
{"smiles": "CCOC(=O)[C@@H](N)Cc1cc(I)c(Oc2cc(I)c(O)c(I)c2)c(I)c1", "water solubility (log10 mol/L)": "-4.6"}
{"smiles": "NC(N)=Nc1nc(CSCCC(N)=NS(N)(=O)=O)cs1", "water solubility (log10 mol/L)": "-2.57"}
{"smiles": "Cn1c(=O)[nH]c(=O)c2[nH]c(=O)n(C)c21", "water solubility (log10 mol/L)": "-2.568"}
{"smiles": "C[C@H](NC(=N)N)C(=O)O", "water solubility (log10 mol/L)": "-0.199"}
{"smiles": "CCCCCOC(=O)c1ccc(N)cc1", "water solubility (log10 mol/L)": "-3.305"}
{"smiles": "Cc1c(NC(N)=O)c(=O)n(-c2ccccc2)n1C", "water solubility (log10 mol/L)": "-1.522"}

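OPERA's authors assembled the values from existing databases and did not measure them anew. A listed value is a point estimate from one report or more. Method, purity and exact conditions of the single measurements are not given. Where a salt, mixture or single isomer is drawn, the source does not say that exactly this form was tested. Some entries may be limits or estimates that an upstream database listed as plain numbers.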